This passage reports Kd results from PMC2662489 (Biochemical Journal, 2009).

The chains behind the UniProt entries cited, without tags or fusion partners. Where a name states a change or a piece, a line headed by the entry shows the natural chain unless it says otherwise.
UniProt P60752: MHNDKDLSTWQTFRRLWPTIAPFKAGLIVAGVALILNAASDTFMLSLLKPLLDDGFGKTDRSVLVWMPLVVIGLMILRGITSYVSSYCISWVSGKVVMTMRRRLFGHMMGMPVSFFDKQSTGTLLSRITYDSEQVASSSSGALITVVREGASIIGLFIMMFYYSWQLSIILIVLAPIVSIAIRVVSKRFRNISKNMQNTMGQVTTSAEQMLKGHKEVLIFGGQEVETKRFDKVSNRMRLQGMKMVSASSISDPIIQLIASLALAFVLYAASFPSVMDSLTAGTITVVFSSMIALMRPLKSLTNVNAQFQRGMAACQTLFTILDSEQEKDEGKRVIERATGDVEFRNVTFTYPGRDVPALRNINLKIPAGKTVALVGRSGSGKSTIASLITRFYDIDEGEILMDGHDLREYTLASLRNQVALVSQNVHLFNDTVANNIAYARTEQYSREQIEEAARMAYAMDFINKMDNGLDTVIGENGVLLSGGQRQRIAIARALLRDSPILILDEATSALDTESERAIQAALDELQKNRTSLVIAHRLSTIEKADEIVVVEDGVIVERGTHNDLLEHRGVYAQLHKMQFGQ

Assay [1] has as its target T1, MsbA-MIANS (Escherichia coli, UniProt P60752). Briefly: Dual sequential titration of MsbA-MIANS fluorescence quenching. It counts as binding. The method, boiled down:
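MIANS-labelled MsbA (100 μg/ml) was prepared by labelling with 10 μM MIANS, quenching with DTE and dialysing. It was held in 100 mM Hepes, 50 mM NaCl, 5 mM MgCl2, 0.05% DM, pH 7.5, at 23 °C, or 10 °C for ATP to prevent hydrolysis. […] Data were fitted to a single-site model for Kd and ΔFmax.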

For assay [2], the target named is T1, MsbA-MIANS. The experiment in a line: MIANS fluorescence quenching titration of MsbA-MIANS. Type of assay: binding. The following applies: MsbA 100 μg/ml in 0.05% DM.

Turning to Lipid A, the Kd was 18.7 ± 3.3 µM at MsbA-MIANS [1] (10 °C, titrated after ATP); 18.1 ± 3.3 µM on MsbA-MIANS [1] (10 °C, titrated after daunorubicin); 24.5 ± 4.4 µM at MsbA-MIANS [1] (23 °C, titrated after daunorubicin); 16.4 ± 3.7 µM on MsbA-MIANS [1] (23 °C, titrated after p[NH]ppA); 2.44 ± 0.35 µM on MsbA-MIANS [2] (10 °C, ligand alone); 5.46 ± 1.04 µM on MsbA-MIANS [2] (23 °C, single-site fit).
